This assay addresses T1, Neuronal precursor cell expressed developmentally downregulated 4-2 (NEDD4-2) (mouse (endogenous in hippocampus), UniProt Q8CFI0 1-1004).
T1 construct: NEDD4-2 E3 ubiquitin ligase, endogenous in mouse hippocampus; S222 and S328 in murine NEDD4-2; source: endogenous, mouse hippocampal tissue lysate (RIPA buffer)
T1 sequence (looked up): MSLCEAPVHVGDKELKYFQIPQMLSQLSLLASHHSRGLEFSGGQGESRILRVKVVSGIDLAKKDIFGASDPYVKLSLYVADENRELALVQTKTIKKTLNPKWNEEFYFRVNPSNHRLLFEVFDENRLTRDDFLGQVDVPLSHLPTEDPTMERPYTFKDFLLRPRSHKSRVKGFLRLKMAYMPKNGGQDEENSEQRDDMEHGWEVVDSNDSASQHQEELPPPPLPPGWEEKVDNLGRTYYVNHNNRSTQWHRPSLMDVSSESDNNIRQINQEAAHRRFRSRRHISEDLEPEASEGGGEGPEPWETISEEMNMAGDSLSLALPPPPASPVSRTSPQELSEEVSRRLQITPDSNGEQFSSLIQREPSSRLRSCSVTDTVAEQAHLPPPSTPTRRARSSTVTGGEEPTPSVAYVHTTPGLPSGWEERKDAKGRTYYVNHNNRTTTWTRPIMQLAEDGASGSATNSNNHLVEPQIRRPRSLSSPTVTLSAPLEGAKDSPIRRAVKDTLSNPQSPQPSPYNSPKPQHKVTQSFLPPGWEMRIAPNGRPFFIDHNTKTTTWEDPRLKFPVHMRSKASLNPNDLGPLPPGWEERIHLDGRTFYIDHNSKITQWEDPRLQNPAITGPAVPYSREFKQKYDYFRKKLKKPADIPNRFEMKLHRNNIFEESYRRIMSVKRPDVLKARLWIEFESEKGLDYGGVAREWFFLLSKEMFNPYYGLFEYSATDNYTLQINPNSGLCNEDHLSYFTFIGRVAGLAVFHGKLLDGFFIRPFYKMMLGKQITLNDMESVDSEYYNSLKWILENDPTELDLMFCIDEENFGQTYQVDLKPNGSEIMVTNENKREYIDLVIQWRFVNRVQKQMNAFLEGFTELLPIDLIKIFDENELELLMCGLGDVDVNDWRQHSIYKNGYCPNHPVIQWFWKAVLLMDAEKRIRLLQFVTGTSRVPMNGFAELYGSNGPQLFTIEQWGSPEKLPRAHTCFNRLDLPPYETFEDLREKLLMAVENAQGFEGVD
The assay can be described thus: co-IP; mouse hippocampal tissue lysed in RIPA buffer with protease and phosphatase inhibitors; equal protein incubated with NEDD4-2, ubiquitin or GluA1 antibody and protein G sepharose at 4 °C overnight; western blot; WT, PLPP/CIN^-/- and PLPP/CIN^Tg mice, saline or KA (25 mg/kg, 2 h), control or NEDD4-2 siRNA. The note with it: partners not purified. Background: Immunoblotting shows a protein as a band on a membrane.

B1: GluA1 subunit of the AMPA receptor (receptor, mouse (endogenous in hippocampus), UniProt P23818 19-907, looked up)
chain: ANFPNNIQIGGLFPNQQSQEHAAFRFALSQLTEPPKLLPQIDIVNISDSFEMTYRFCSQFSKGVYAIFGFYERRTVNMLTSFCGALHVCFITPSFPVDTSNQFVLQLRPELQEALISIIDHYKWQTFVYIYDADRGLSVLQRVLDTAAEKNWQVTAVNILTTTEEGYRMLFQDLEKKKERLVVVDCESERLNAILGQIVKLEKNGIGYHYILANLGFMDIDLNKFKESGANVTGFQLVNYTDTIPARIMQQWRTSDARDHTRVDWKRPKYTSALTYDGVKVMAEAFQSLRRQRIDISRRGNAGDCLANPAVPWGQGIDIQRALQQVRFEGLTGNVQFNEKGRRTNYTLHVIEMKHDGIRKIGYWNEDDKFVPAATDAQAGGDNSSVQNRTYIVTTILEDPYVMLKKNANQFEGNDRYEGYCVELAAEIAKHVGYSYRLEIVSDGKYGARDPDTKAWNGMVGELVYGRADVAVAPLTITLVREEVIDFSKPFMSLGISIMIKKPQKSKPGVFSFLDPLAYEIWMCIVFAYIGVSVVLFLVSRFSPYEWHSEEFEEGRDQTTSDQSNEFGIFNSLWFSLGAFMQQGCDISPRSLSGRIVGGVWWFFTLIIISSYTANLAAFLTVERMVSPIESAEDLAKQTEIAYGTLEAGSTKEFFRRSKIAVFEKMWTYMKSAEPSVFVRTTEEGMIRVRKSKGKYAYLLESTMNEYIEQRKPCDTMKVGGNLDSKGYGIATPKGSALRGPVNLAVLKLSEQGVLDKLKSKWWYDKGECGSKDSGSKDKTSALSLSNVAGVFYILIGGLGLAMLVALIEFCYKSRSESKRMKGFCLIPQQSINEAIRTSTLPRNSGAGASGGSGSGENGRVVSQDFPKSMQSIPCMSHSSGMPLGATGL
notes: AMPA receptor subunit GluA1, endogenous in mouse hippocampus; source: endogenous, mouse hippocampal tissue lysate (RIPA buffer)
For B1, the “fold of WT mouse level (in PLPP/CIN^Tg mice)” value is around 0.5 fold.

The record behind these values is PMC6639327, “PLPP/CIN-mediated NEDD4-2 S448 dephosphorylation regulates neuronal excitability via GluA1 ubiquitination” (Cell Death & Disease, 2019).
